Measurements taken from paper PMC3951999 (Cancer cell, 2011).

Key:
[1] = system: BCR-ABL^T315I Ba/F3 cells
[2] = system: BV173R cells (BCR-ABL^T315I)
CRAF [3] = target: T1, CRAF (Mus musculus, UniProt Q99N57); test: Endogenous CRAF kinase activity in BCR-ABL Ba/F3 cells
CRAF [4] = target: T1, CRAF; settings: BCR-ABL^T315I Ba/F3 cells

`Cc1nc(Nc2ncc(C(=O)Nc3c(C)cccc3Cl)s2)cc(N2CCN(CCO)CC2)n1` [dasatinib] was tested, and the “BCR-ABL and CRKL phosphorylation” value [1] was “did not inhibit BCR-ABL or CRKL phosphorylation”, the “BRAF binding to CRAF” value [1] was “enhanced BRAF binding to CRAF” and the “CRAF (S338) phosphorylation, MEK and ERK activity/phosphorylation” value [1] was “induced CRAF phosphorylation on S338 (Fig 3C) and activated CRAF (Fig 3D), MEK and ERK”. The “BRAF binding to CRAF” value [2] was “induced BRAF binding to CRAF”, the “MEK and ERK activity” value [2] was “activated MEK and ERK” and the CRAF activity (CRAF [3]) was “blocked CRAF activity”. The CRAF activity (CRAF [4]) was “activated CRAF”.

Read-outs that look alike come from different tables or passages of the source.
